The assay has as its target Human sEH (Homo sapiens, UniProt P34913). Kind of assay: sEH fluorescent-based inhibition assay. The class given is biochemical.

The chains behind the UniProt entries cited, without tags or fusion partners.
UniProt P34913, whole entry: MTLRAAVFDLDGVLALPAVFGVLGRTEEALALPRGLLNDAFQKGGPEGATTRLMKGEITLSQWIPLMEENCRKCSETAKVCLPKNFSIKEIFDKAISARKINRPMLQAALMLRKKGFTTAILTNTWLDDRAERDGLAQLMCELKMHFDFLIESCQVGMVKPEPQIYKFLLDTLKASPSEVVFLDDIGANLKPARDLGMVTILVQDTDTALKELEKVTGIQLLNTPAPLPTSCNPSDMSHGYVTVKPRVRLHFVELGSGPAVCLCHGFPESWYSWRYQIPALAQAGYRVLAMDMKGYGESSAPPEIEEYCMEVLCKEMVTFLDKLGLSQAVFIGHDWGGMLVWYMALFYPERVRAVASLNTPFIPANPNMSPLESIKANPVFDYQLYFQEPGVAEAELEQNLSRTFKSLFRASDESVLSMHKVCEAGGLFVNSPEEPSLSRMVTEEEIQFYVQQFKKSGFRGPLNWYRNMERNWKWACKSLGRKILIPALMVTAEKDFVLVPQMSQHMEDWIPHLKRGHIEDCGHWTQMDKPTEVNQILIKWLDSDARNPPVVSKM

The source of these data is article PMC12018053 (Biochemistry and Biophysics Reports, 2025).

As usually defined, the IC50 is the concentration needed to halve the response being measured. Read a high IC50 as a need for much substance.

In turn, `O=C(Nc1ccc(-c2ccccn2)cc1)C1CCN(S(=O)(=O)c2ccccc2Cl)CC1` [Compound 4h, 1-((2-chlorophenyl)sulfonyl)-N-(4-(pyridin-2-yl)phenyl)piperidine-4-carboxamide] came in with an IC50 of 1.7 nM.
